Laboratory results reported in patent US9764004B2 (Eli Lilly and Company, priority 2015, dated 2017).
Read-outs that look alike come from different tables or passages of the source. Values belong to the compound of their own block, whether it stands above or below them.

Sequences of proteins named here, by UniProt entry; tags and fusion partners are left off. Residues count along the entry.
UniProt Q61606, 27-485: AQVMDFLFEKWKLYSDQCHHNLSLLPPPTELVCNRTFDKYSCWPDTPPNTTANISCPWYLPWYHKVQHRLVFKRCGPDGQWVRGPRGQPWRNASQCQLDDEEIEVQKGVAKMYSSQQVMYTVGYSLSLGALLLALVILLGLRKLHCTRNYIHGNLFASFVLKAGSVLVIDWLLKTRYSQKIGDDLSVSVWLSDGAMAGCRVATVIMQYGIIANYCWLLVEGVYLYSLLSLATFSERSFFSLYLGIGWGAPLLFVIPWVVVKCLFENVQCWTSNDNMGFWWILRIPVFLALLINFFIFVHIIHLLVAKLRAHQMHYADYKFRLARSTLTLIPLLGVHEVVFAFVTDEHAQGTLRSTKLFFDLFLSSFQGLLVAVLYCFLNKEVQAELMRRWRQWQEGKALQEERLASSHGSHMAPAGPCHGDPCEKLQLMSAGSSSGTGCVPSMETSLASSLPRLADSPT
UniProt P30082, 27-485: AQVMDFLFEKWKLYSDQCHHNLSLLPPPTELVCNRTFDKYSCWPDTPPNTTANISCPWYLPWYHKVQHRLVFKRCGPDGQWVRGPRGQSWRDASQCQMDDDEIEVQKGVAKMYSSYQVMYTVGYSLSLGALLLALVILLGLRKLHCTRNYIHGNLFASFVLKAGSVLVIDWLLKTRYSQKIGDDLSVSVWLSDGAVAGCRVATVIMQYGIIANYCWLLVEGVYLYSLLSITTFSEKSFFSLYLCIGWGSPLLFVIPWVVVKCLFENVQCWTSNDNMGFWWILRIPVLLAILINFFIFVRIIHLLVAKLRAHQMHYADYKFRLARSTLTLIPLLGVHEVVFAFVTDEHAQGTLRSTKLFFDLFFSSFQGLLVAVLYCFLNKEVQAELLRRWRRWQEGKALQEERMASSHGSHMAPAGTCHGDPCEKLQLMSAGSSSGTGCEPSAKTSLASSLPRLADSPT
UniProt P43220, 24-463: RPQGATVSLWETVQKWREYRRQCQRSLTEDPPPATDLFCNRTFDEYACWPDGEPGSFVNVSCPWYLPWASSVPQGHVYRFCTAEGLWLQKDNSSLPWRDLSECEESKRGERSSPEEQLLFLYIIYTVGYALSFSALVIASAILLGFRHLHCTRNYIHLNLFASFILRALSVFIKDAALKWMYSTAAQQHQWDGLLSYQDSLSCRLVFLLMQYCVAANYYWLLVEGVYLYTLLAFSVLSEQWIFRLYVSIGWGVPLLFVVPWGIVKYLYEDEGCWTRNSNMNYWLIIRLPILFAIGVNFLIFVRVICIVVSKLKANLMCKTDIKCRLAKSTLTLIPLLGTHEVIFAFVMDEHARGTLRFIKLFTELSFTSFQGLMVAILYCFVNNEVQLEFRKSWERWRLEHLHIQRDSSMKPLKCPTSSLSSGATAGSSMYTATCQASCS
UniProt P47871, 26-477: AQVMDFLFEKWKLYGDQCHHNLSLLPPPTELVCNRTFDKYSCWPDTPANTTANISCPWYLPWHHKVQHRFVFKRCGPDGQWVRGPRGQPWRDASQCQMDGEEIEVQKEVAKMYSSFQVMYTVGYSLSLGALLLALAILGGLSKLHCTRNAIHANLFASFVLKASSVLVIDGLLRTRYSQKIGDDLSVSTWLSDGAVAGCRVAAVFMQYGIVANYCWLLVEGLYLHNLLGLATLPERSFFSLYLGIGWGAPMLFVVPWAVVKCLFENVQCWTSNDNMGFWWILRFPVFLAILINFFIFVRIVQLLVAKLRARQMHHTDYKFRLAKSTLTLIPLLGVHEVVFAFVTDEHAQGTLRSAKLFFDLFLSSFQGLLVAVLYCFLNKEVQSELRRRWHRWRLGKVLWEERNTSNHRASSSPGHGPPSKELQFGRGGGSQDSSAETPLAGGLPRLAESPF

Legend:
[1] = target: T1, mouse glucagon receptor (mGcg-R) (Mus musculus, UniProt Q61606); assay: Radioligand competition binding (SPA), mGcg-R membranes; settings: mean ± SEM
T1 construct: expressed in transfected cells; crude plasma membranes

[2] = target: T2, rat glucagon receptor (rGcg-R) (Rattus norvegicus, UniProt P30082); assay: Radioligand competition binding (SPA), rGcg-R membranes; settings: mean ± SEM
T2 construct: expressed in transfected cells; host or cells: 293HEK, transient (48 h), pcDNA3.1-ZeoR; crude plasma membranes

hGIP-R = target: T3, hGIP-R (Homo sapiens, UniProt P48546); assay: hGIP-R functional cAMP assay; format: cell-based
T3 construct: expressed in transfected cells; host or cells: CHO-S (Chinese Hamster Ovary, suspension), pcDNA3.1-NeoR, Geneticin selection
T3 sequence (P48546 22-466): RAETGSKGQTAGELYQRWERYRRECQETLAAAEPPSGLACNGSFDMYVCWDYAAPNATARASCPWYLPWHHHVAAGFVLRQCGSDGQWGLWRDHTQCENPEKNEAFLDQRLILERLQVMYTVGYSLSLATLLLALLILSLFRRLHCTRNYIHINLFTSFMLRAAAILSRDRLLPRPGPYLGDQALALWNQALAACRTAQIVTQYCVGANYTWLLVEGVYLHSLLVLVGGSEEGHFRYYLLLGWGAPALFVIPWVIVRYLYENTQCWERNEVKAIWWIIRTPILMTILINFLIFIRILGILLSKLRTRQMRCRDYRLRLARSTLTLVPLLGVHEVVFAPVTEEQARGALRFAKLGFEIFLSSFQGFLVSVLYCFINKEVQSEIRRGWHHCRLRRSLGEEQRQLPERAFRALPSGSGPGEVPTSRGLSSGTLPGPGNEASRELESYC

Pharmacokinetics in Rats = format: in vivo; settings: rat, plasma; male Sprague Dawley rats, single SC 100 nmol/kg
[3] = target: human Glucagon-Like Peptide-1 receptor (hGLP-1R) (Homo sapiens, UniProt P43220); assay: hGLP-1-R functional cAMP assay
[4] = target: T4, human glucagon receptor (hGcg-R) (Homo sapiens, UniProt P47871); assay: Radioligand competition binding (SPA), hGcg-R membranes; parameters: expressed in transfected cells; crude plasma membranes; settings: mean ± SEM
[5] = target: T4, human glucagon receptor (hGcg-R); assay: hGcg-R functional cAMP assay; format: cell-based; parameters: expressed in transfected cells; host or cells: 293HEK, plasmid phD, hygromycin selection
[6] = cAMP, geometric mean ± SEM, read-out: hGIP-R EC50
[7] = hGlp-1R EC50, cAMP, geometric mean ± SEM
[8] = cAMP, geometric mean ± SEM, read-out: hGcg-R EC50

SMILES: CC(C)C[C@H](NC(=O)[C@H](Cc1c[nH]c2ccccc12)NC(=O)[C@H](CCC(=O)O)NC(=O)[C@@H](NC(=O)[C@H](Cc1ccccc1)NC(=O)[C@H](CCC(=O)O)NC(=O)[C@H](CCCCNC(=O)COCCOCCNC(=O)COCCOCCNC(=O)CC[C@H](NC(=O)CC[C@H](NC(=O)CCCCCCCCCCCCCCCCC(=O)O)C(=O)O)C(=O)O)NC(=O)[C@H](C)NC(=O)[C@H](CCCCN)NC(=O)[C@H](CCCCN)NC(=O)C(C)(C)NC(=O)[C@H](CC(=O)O)NC(=O)[C@H](CC(C)C)NC(=O)[C@H](Cc1ccc(O)cc1)NC(=O)[C@H](CCCCN)NC(=O)[C@H](CO)NC(=O)[C@H](Cc1ccc(O)cc1)NC(=O)[C@H](CC(=O)O)NC(=O)[C@H](CO)NC(=O)[C@H](CC(C)C)NC(=O)[C@H](Cc1ccccc1)NC(=O)[C@@H](NC(=O)CNC(=O)[C@H](CCC(N)=O)NC(=O)C(C)(C)NC(=O)[C@@H](N)Cc1ccc(O)cc1)[C@@H](C)O)C(C)C)C(=O)N[C@@H](CC(C)C)C(=O)N[C@@H](CCC(=O)O)C(=O)N[C@H](C(=O)NCC(=O)N1CCC[C@H]1C(=O)N[C@@H](CO)C(=O)N[C@@H](CO)C(=O)NCC(=O)N[C@@H](C)C(=O)N1CCC[C@H]1C(=O)N1CCC[C@H]1C(=O)N1CCC[C@H]1C(=O)N[C@@H](CO)C(N)=O)[C@@H](C)O [Example 3]
Ki [1]: 0.174 nM
Ki [2]: 1.56 ± 0.13 nM
EC50 (hGIP-R; [6]): > 500 nM
EC50 (hGIP-R; sample C6.5-4 C.-4 wk, read-out: EC50 GIP Receptor Assay): > 100 nM
EC50 (hGIP-R; sample C6.5-40 C.-4 wk, read-out: EC50 GIP Receptor Assay): > 100 nM
EC50 (hGIP-R; sample C6.5MT-4 C.-4 wk, read-out: EC50 GIP Receptor Assay): > 100 nM
EC50 (hGIP-R; sample C6.5MT-40 C.-4 wk, read-out: EC50 GIP Receptor Assay): > 100 nM
EC50 (hGIP-R; sample T7-4 C.-4 wk, N = 2 ± SD, *N = 1, read-out: EC50 GIP Receptor Assay): > 100 nM
EC50 (hGIP-R; sample T7-40 C.-4 wk, N = 2 ± SD, *N = 1, read-out: EC50 GIP Receptor Assay): > 100 nM
EC50 (hGIP-R; sample T7m-4 C.-4 wk, N = 2 ± SD, *N = 1, read-out: EC50 GIP Receptor Assay): > 100 nM
EC50 (hGIP-R; sample T7m-40 C.-4 wk, N = 2 ± SD, *N = 1, read-out: EC50 GIP Receptor Assay): > 100 nM
AUC(0-inf) (Pharmacokinetics in Rats): 11.1 µM·h
CL/F (Pharmacokinetics in Rats): 0.153 mL/min/kg
Cmax (Pharmacokinetics in Rats): 394 nM
Tmax (Pharmacokinetics in Rats): 8 h
half-life (Pharmacokinetics in Rats): 11 h
EC50 ([3]; EC50 GLP-1 Receptor Assay, sample C6.5-4 C.-4 wk, N = 2 ± SD): > 100 nM
EC50 ([3]; EC50 GLP-1 Receptor Assay, sample C6.5-40 C.-4 wk, N = 2 ± SD): > 100 nM
EC50 ([3]; EC50 GLP-1 Receptor Assay, sample C6.5MT-4 C.-4 wk, N = 2 ± SD): > 100 nM
EC50 ([3]; EC50 GLP-1 Receptor Assay, sample C6.5MT-40 C.-4 wk, N = 2 ± SD): > 100 nM
EC50 ([3]; EC50 GLP-1 Receptor Assay, sample T7-4 C.-4 wk, N = 2 ± SD, *N = 1): > 100 nM
EC50 ([3]; EC50 GLP-1 Receptor Assay, sample T7-40 C.-4 wk, N = 2 ± SD, *N = 1): > 100 nM
EC50 ([3]; EC50 GLP-1 Receptor Assay, sample T7m-4 C.-4 wk, N = 2 ± SD, *N = 1): > 100 nM
EC50 ([3]; EC50 GLP-1 Receptor Assay, sample T7m-40 C.-4 wk, N = 2 ± SD, *N = 1): > 100 nM
EC50 [3, 7]: > 100 nM
Ki [4]: 0.287 ± 0.171 nM
EC50 [5, 8]: 0.0034 ± 0.0001 nM
EC50 ([5]; sample C6.5-4 C.-4 wk, N = 2 ± SD, read-out: EC50 Gcg Receptor Assay): 0.0369 ± 0.0296 nM
EC50 ([5]; sample C6.5-40 C.-4 wk, N = 2 ± SD, read-out: EC50 Gcg Receptor Assay): 0.0257 ± 0.0069 nM
EC50 ([5]; sample C6.5MT-4 C.-4 wk, N = 2 ± SD, read-out: EC50 Gcg Receptor Assay): 0.0193 ± 0.0011 nM
EC50 ([5]; sample C6.5MT-40 C.-4 wk, N = 2 ± SD, read-out: EC50 Gcg Receptor Assay): 0.0214 ± 0.0031 nM
EC50 ([5]; sample T7-4 C.-4 wk, N = 2 ± SD, read-out: EC50 Gcg Receptor Assay): 0.0143 ± 0.0034 nM
EC50 ([5]; sample T7-40 C.-4 wk, N = 2 ± SD, read-out: EC50 Gcg Receptor Assay): 0.0249 ± 0.0029 nM
EC50 ([5]; sample T7m-4 C.-4 wk, N = 2 ± SD, read-out: EC50 Gcg Receptor Assay): 0.0211 ± 0.004 nM
EC50 ([5]; sample T7m-40 C.-4 wk, N = 2 ± SD, read-out: EC50 Gcg Receptor Assay): 0.0211 ± 0.0051 nM

Ki [1]: 1.58 nM
Ki [2]: 4.36 nM
EC50 (hGIP-R; [6]): > 500 nM
AUC(0-inf) (Pharmacokinetics in Rats): 12.9 µM·h
CL/F (Pharmacokinetics in Rats): 0.13 mL/min/kg
Cmax (Pharmacokinetics in Rats): 237 nM
Tmax (Pharmacokinetics in Rats): 24 h
half-life (Pharmacokinetics in Rats): 22 h
EC50 [3, 7]: 27 ± 4.5 nM
Ki [4]: 1.59 nM
EC50 [5, 8]: 0.016 ± 0.0038 nM
SMILES: CC(C)C[C@H](NC(=O)[C@H](Cc1c[nH]c2ccccc12)NC(=O)[C@H](CCC(=O)O)NC(=O)[C@@H](NC(=O)[C@H](Cc1ccccc1)NC(=O)[C@H](CCC(=O)O)NC(=O)[C@H](CCCCNC(=O)COCCOCCNC(=O)COCCOCCNC(=O)CC[C@H](NC(=O)CC[C@H](NC(=O)CCCCCCCCCCCCCCCCCCC(=O)O)C(=O)O)C(=O)O)NC(=O)[C@H](C)NC(=O)[C@H](CCCCN)NC(=O)[C@H](CCCCN)NC(=O)C(C)(C)NC(=O)[C@H](CC(=O)O)NC(=O)[C@H](CC(C)C)NC(=O)[C@H](Cc1ccc(O)cc1)NC(=O)[C@H](CCCCN)NC(=O)[C@H](CO)NC(=O)[C@H](Cc1ccc(O)cc1)NC(=O)[C@H](CC(=O)O)NC(=O)[C@H](CO)NC(=O)[C@@H](NC(=O)[C@H](Cc1ccccc1)NC(=O)[C@@H](NC(=O)CNC(=O)[C@H](CCC(N)=O)NC(=O)C(C)(C)NC(=O)[C@@H](N)Cc1ccc(O)cc1)[C@@H](C)O)[C@@H](C)O)C(C)C)C(=O)N[C@@H](CC(C)C)C(=O)N[C@@H](CCC(=O)O)C(=O)N[C@H](C(=O)NCC(=O)N1CCC[C@H]1C(=O)N[C@@H](CO)C(=O)N[C@@H](CO)C(=O)NCC(N)=O)[C@@H](C)O [Example 5]

Ki [1]: 0.753 nM
Ki [2]: 1.38 nM
EC50 (hGIP-R; [6]): > 500 nM
EC50 [3, 7]: > 100 nM
Ki [4]: 0.673 nM
EC50 [5, 8]: 0.0166 ± 0.0004 nM
SMILES: CC(C)C[C@H](NC(=O)[C@H](Cc1c[nH]c2ccccc12)NC(=O)[C@H](C)NC(=O)[C@@H](NC(=O)[C@H](Cc1ccccc1)NC(=O)[C@H](CCC(=O)O)NC(=O)[C@H](CCCCNC(=O)COCCOCCNC(=O)COCCOCCNC(=O)CC[C@H](NC(=O)CCCCCCCCCCCCCCCCCCC(=O)O)C(=O)O)NC(=O)[C@H](C)NC(=O)[C@H](CCCCN)NC(=O)[C@H](CCCCN)NC(=O)C(C)(C)NC(=O)[C@H](CC(=O)O)NC(=O)[C@H](CC(C)C)NC(=O)[C@H](Cc1ccc(O)cc1)NC(=O)[C@H](CCCCN)NC(=O)[C@H](CO)NC(=O)[C@H](Cc1ccc(O)cc1)NC(=O)[C@H](CC(=O)O)NC(=O)[C@H](CO)NC(=O)[C@@H](NC(=O)[C@H](Cc1ccccc1)NC(=O)[C@@H](NC(=O)CNC(=O)[C@H](CCC(N)=O)NC(=O)C(C)(C)NC(=O)[C@@H](N)Cc1ccc(O)cc1)[C@@H](C)O)[C@@H](C)O)C(C)C)C(=O)N[C@@H](CC(C)C)C(=O)N[C@@H](CCC(=O)O)C(=O)N[C@@H](CCC(=O)O)C(=O)O [Example 7]
